Measurements published in US20250186374A1 (priority 2022, published 2025).
pIC50: −log10 of the molar value.

Sequences of proteins named here, by UniProt entry; tags and fusion partners are left off. Residues count along the entry.
UniProt P07711, 114-333: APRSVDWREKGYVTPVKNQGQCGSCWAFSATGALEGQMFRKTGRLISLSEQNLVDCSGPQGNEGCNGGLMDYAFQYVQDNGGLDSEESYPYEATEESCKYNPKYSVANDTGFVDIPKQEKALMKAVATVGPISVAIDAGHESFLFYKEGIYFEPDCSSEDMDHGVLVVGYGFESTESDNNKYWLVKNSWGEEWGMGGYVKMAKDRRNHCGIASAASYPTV

What was measured:
Cathepsin B = Cathepsin B (Homo sapiens, UniProt P07858); details: read-out: CatB IC50
Cathepsin L = Cathepsin L (Homo sapiens, UniProt P07711); details: read-out: CatL IC50

Work on Cl.NCCOc1ccc(Cl)cc1C(=O)NCC(=O)Nc1ccc([N+](=O)[O-])cc1Cl [JMX0286, 2-(2-Aminoethoxy)-5-chloro-N-(2-((2-chloro-4-nitrophenyl)amino)-2-oxoethyl)benzamide hydrochloride] yielded a pIC50 (Cathepsin B) of 4.33 and a pIC50 (Cathepsin L) of 3.96.
With CC(C)(C)OC(=O)NCCOc1ccc(Cl)cc1C(=O)NCC(=O)Nc1ccc([N+](=O)[O-])cc1Cl [JMX0301, tert-Butyl(2-(4-chloro-2-((2-((2-chloro-4-nitrophenyl)amino)-2-oxoethyl)carbamoyl)phenoxy)ethyl)carbamate] the pIC50 (Cathepsin L) was 3.87.
